Apparent affinities of Ab-14 variants for a coronavirus HR2 peptide

The measurements come from Engelhart et al. 2022 (doi:10.1038/s41597-022-01779-4) through the FLAb antibody collection.

Target peptide (SARS-CoV-2 spike, HR2 region): PDVDLGDISGINAS

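Variants in AAYL50 differ from the parent at up to three CDR positions; double and triple changes were sampled at random. In AlphaSeq, yeast of one mating type display the scFv and yeast of the other type display the target. Mating (16 h, 30 °C) was followed by selection of diploids and sequencing of their barcodes. Scores were corrected for input abundance and mapped to Kd with protein pairs of known affinity run in the same pool. Mating was done three times.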

Each scFv is VH, a 15-residue (Gly4Ser)3 linker, VL, as in the parent Ab-14, and differs from it in the CDRs of the light chain only.
VH: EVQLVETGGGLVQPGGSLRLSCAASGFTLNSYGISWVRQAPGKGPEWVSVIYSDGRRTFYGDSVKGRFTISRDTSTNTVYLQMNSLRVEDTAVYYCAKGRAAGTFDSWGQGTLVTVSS
VL: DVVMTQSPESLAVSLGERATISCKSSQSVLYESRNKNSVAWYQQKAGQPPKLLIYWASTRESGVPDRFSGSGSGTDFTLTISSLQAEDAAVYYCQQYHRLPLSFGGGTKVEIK

Positions count from residue 1 of the parent VL; S26R puts R in place of S. Numbers give log10(Kd / nM), so 0 is 1 nM and 3 is 1 µM. Smaller is tighter. An entry "nd" has no value in the source: the pair was not observed among the diploids in that replicate. This suggests poor binding but is not conclusive. Three control strains display no target. For library AAYL50, 18% of the pairings with them gave a signal, with a median of 4.19 and one signal in twenty below 2.99, so weak values seen in few replicates may be background. Also given: how often the same scFv was detected with the empty control strains, with their mean in brackets.

changes | log10 Kd (nM) by replicate | signal with controls
S26R R60E | nd / nd / nd | 2/9 (4.42)
V39H P101Y L102V | nd / nd / nd | 0/9
A40Y E61S S62Q | nd / nd / nd | 1/9 (2.86)
T59Q L100Y S103Q | nd / nd / nd | 0/9
L30N E32A A57E | 1.80 / 1.61 / 2.17 | 2/9 (3.65)
K24N Q27S R60S | nd / nd / nd | 0/9
V29P S62K R99E | 1.87 / 1.87 / 1.95 | 3/9 (3.53)
V29C N35T S103F | nd / nd / nd | 0/9
S26P S33I S38E | 2.94 / 3.56 / nd | 0/9
Q27D L30P N35E | 0.52 / 0.76 / 0.65 | 5/9 (4.86)
S26T S28E S33R | nd / nd / nd | 2/9 (2.96)
S26L S28F W56N | -0.42 / -0.03 / -0.27 | 7/9 (5.31)
N35V V39E L100T | nd / 4.26 / nd | 5/9 (3.99)
N37C A57E E61H | 3.36 / 3.39 / 4.03 | 5/9 (4.89)
S28N V29L S62T | 0.66 / 0.77 / 0.76 | 1/9 (4.78)
S33K H98C P101V | nd / nd / nd | 2/9 (4.40)
K36T Q96M L100T | nd / nd / 3.34 | 3/9 (4.01)
Q27P N35Q R60A | nd / 3.69 / 2.57 | 1/9 (3.49)
S25Y S28L S38Q | 2.36 / 2.14 / 2.29 | 1/9 (4.03)
S25G V29H N35S | 1.99 / 1.79 / 1.77 | 3/9 (3.66)
S28K W56N P101A | 5.46 / 4.15 / nd | 3/9 (4.87)
Y31M Q95L R99H | nd / 4.25 / 4.41 | 3/9 (4.02)
Y31Q S33M S38A | 0.59 / 0.77 / 0.72 | 2/9 (4.13)
S26G Q27W W56A | 0.46 / 0.73 / 0.60 | 3/9 (4.60)
R34A V39K L102E | nd / nd / nd | 0/9
S25K S26I S28I | 6.45 / nd / nd | 0/9
E32R N35G E61T | 3.04 / 3.92 / 2.90 | 3/9 (4.03)
K24G S26Y V39R | nd / nd / 4.68 | 0/9
V29K S58H S103R | nd / 3.77 / nd | 4/9 (4.23)
S26E S28E A40R | nd / 3.04 / nd | 1/9 (3.15)
V39L L102W | 2.55 / 2.01 / 2.69 | 2/9 (4.79)
R34T H98C S103D | 0.81 / 0.74 / 0.61 | 2/9 (3.53)
Q27H V29Q R60T | nd / nd / nd | 3/9 (4.32)
R34T A57Y | nd / nd / 3.01 | 0/9
S25Q R34M S62V | 0.82 / 0.93 / 1.24 | 4/9 (4.42)
S25I N37F P101A | nd / nd / nd | 0/9
K24M S38F W56A | nd / nd / nd | 0/9
S26G Q96W L102M | 2.88 / 2.96 / 2.57 | 5/9 (4.97)
V29P L100N | 2.06 / 2.26 / 1.96 | 2/9 (4.03)
S28K A40E P101K | nd / nd / 6.24 | 4/9 (4.61)
Q27P V29M K36N | 0.60 / 0.86 / 0.78 | 0/9

The 4 strongest on average among those seen in every replicate, once more:

changes,log10 Kd (nM) by replicate,signal with controls
S26L S28F W56N,-0.42 / -0.03 / -0.27,7/9 (5.31)
S26G Q27W W56A,0.46 / 0.73 / 0.60,3/9 (4.60)
Q27D L30P N35E,0.52 / 0.76 / 0.65,5/9 (4.86)
Y31Q S33M S38A,0.59 / 0.77 / 0.72,2/9 (4.13)

For reference, the parent read 0.65 as the reference entry and 1.68 as a member of this library.